# From PMC12136037 (2025)
# Tested on: ~100 representative kinases
# Assay: DSF 100 kinase selectivity screen
smiles,measurement,value
CN[C@@H]1C[C@H]2O[C@@](C)([C@@H]1OC)n1c3ccccc3c3c4c(c5c6ccccc6n2c5c31)C(=O)NC4 [Staurosporine],# >5K,76
same,S(5K),0.691
